# Reference: patent publication US7241770B2 (priority 2003, dated 2007)
# By UniProt entry, the sequences of proteins in these tests, tags left out. Where a name states a change or a piece, a line headed by the entry shows the natural chain unless it says otherwise.
# UniProt P41146: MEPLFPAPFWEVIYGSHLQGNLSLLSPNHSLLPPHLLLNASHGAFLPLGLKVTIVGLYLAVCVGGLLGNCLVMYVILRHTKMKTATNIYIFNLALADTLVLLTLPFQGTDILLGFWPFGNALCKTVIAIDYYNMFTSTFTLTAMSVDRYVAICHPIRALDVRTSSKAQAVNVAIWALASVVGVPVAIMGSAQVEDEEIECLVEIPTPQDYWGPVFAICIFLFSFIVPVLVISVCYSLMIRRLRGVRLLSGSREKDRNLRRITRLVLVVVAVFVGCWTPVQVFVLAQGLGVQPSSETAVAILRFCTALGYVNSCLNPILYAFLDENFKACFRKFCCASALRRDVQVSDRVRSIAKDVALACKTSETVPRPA
# Target: ORL1 receptor (Homo sapiens, UniProt P41146)
# Test: In vitro ORL1 receptor agonism, cAMP assay
row,Compound,In vitro agonism cAMP assay pEC50
1,CNCCCCN1CN(c2ccccc2)C2(CCN(CCC3CCC4CC3C4(C)C)CC2)C1=O (stereo not shown) [Example 14],9.9
2,"CC1(C)C2CCC(CCN3CCC4(CC3)C(=O)NCN4c3ccccc3)C1C2 (stereo not shown) [Example 1, 8-[2-(6,6-Dimethyl-bicyclo[3.1.1]hept-2-yl)-ethyl]-1-phenyl-1,3,8-triaza-spiro[4.5]decan-4-one]",10.2
3,"CNCCCN1CN(c2ccccc2)C2(CCN(CCC3CCC4CC3C4(C)C)CC2)C1=O (stereo not shown) [Example 13, 8-[2-(6,6-Dimethyl-bicyclo[3.1.1]hept-2-yl)-ethyl]-3-(3-methylamino-propyl)-1-phenyl-1,3,8-triaza-spiro[4.5]decan-4-one]",8.7
4,"CN(CCCN1CN(c2ccccc2)C2(CCN(CCC3CCC4CC3C4(C)C)CC2)C1=O)CC1(O)CCNCC1 (stereo not shown) [Example 37, 8-[2-(6,6-Dimethyl-bicyclo[3.1.1]hept-2-yl)-ethyl]-3-{3-[(4-hydroxy-piperidin-4-ylmethyl)-methyl-amino]-propyl}-1-phenyl-1,3,8-triaza-spiro[4.5]decan-4-one]",10.6
